Consider 1 substance from article PMC11324666, “Two novel in vitro assays to screen chemicals for their capacity to inhibit thyroid hormone transmembrane transporter proteins OATP1C1 and OAT4” (Archives of Toxicology, 2024).

The data set deals with MDCK-OAT4 cells. In words: CellTiter-Glo luminescent cell viability assay in MDCK-OAT4 cells. As to conditions: concentration that inhibits cell viability by 10%, 20 min exposure. In general terms: In ATP-based viability assays light output follows the ATP content of the culture.

Some results are limits rather than exact numbers.

Consider “β-Estradiol-3-sulfate [ß-Estrone-3-sulfate]”, for which the “Cytotoxicity IC10” value is greater than 10 µM.
